Data on one substance can be found in US7456216B2, “Methods for the preparation and formulation of l-carnitine valproate salts” (BioLink Life Sciences, Inc., priority 2007, dated 2008).

The series in a line: Solubility in water or aqueous solutions. The series is classed as physicochemical. The procedure:
For example, L-carnitine calcium valproate of the present invention, a white solid, is recovered in greater than about 85% yields from aqueous alcohol solutions containing valproic acid, L-carnitine, and calcium ion (Ca^2+), each of which is added to the reaction in no particular order. Likewise, L-carnitine magnesium valproate of the present invention, a white solid, is recovered in greater than about 85% yield from aqueous alcohol solutions containing valproic acid, L-carnitine, and magnesium ion (Mg^2+), each of which is added to the reaction in no particular order. Each L-carnitine valproate salt thus obtained has a purity of greater than about 95%, is free of contaminating inorganic and organic salts and residual solvents, and is stable during storage in closed and sealed containers. Further, an L-carnitine valproate salt of the present invention readily dissolves in water or aqueous solutions to provide aqueous solutions having a valproate concentration in the range from about 10 mg/mL to about 150 mg/mL and near neutral pH.
In general, the solubilities of calcium or magnesium salts of organic acids in water or aqueous solutions vary unpredictably. […]

Turning to L-carnitine calcium valproate, the “Solubility in water or aqueous solutions” value was “readily dissolved in water or aqueous solutions”.
